Reference: patent US5977135A

Sequences of proteins named here, by UniProt entry; tags and fusion partners are left off.
UniProt P21452, whole entry: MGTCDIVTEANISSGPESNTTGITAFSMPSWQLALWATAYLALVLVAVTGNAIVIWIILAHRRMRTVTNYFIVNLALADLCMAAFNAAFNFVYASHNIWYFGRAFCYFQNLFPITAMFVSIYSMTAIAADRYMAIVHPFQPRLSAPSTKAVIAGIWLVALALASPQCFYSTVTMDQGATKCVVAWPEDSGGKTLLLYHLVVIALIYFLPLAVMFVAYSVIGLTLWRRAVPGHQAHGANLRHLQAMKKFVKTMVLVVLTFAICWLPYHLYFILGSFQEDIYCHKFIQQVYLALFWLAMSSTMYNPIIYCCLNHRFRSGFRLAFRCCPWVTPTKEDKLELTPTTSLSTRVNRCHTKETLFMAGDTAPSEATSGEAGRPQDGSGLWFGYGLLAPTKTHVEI

Biological target: human NK2 receptor (Homo sapiens, UniProt P21452)
Assay: Neurokinin A (NKA) Receptor-binding Assay (Test A), 3H-NKA binding to MEL cells expressing the human NK2 receptor
Conditions: versus 3H-NKA binding to MEL; standard compound, initial use of this assay
Source text: Neurokinin A (NKA) Receptor-binding Assay (Test A)

With `CSCC[C@@H]1NC(=O)[C@H](CC(C)C)NC(=O)CNC(=O)[C@H](Cc2ccccc2)NC(=O)[C@H](Cc2c[nH]c3ccccc23)NC(=O)[C@H](CCC(N)=O)NC1=O` as the compound, how does the IC50 read?
The IC50 was 30 nM.
